Assay results from PubChem BioAssay AID641 (Vanderbilt High Throughput Screening Facility, 2007).
Only a part is listed here, and it is no random draw. The source made the active and inactive calls.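 Rule for the calls: active = luminescence count or its row- and column-corrected plate score outside the 99.7% band of the plate's sample wells, on either side; inactive = the rest.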

Protein sequences, listed by entry. Tags and fused reporters are not part of them.
UniProt P21728, whole entry: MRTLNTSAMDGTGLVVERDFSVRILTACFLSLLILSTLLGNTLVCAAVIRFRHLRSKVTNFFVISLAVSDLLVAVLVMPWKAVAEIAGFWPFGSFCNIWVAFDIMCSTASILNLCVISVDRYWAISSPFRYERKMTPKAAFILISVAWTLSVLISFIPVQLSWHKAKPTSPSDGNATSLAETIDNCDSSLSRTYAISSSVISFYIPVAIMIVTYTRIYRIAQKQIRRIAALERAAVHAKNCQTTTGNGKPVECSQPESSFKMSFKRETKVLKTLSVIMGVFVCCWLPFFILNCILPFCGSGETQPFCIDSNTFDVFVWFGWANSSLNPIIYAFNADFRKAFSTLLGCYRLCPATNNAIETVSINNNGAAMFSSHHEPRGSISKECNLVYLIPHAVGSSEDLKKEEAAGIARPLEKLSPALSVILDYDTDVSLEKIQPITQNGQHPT

These compounds were tested against D(1A) dopamine receptor (Homo sapiens) (UniProt P21728) (assay: D1 CRE-luciferase signal change, two-sided – cell-based, HEK293 D1, dopamine EC30, D1 allosteric modulator project, primary screen (AID 641)). Conditions: dopamine EC30 potentiation, at 10 µM, actives deviate in either direction.
With N#CC1(Nc2ccccc2)CCN(CCc2ccccc2)CC1 the B-score was inactive: 0.0197. In the case of COc1ccc(NC2CCN(CCc3ccccc3)CC2)c(OC)c1, the B-score is reported as inactive: -3.02. In the case of O=C(OC1CN2CCC1CC2)C1c2ccccc2Oc2ccccc21 (configuration not stated), the B-score is reported as inactive: -0.0349. For CCC(CO)(C(=O)OC1CN2CCC1CC2)c1ccccc1 (configuration not stated), the B-score was inactive: -0.0733. With CCOc1ncccc1C(=O)NCC1(N2CCOCC2)CCCCC1 the B-score was active: 16.9. Fc1ccccc1NC1CCN(Cc2ccccc2)CC1 was tested, and the B-score was active: -3.44. N/C(=N\O)c1c(N)no[n+]1[O-] was tested, and the B-score was inactive: 0.0843.
